Results reported in publication PMC5986797, “Laminin heparin-binding peptides bind to several growth factors and enhance diabetic wound healing” (Nature Communications, 2018).

Tested on: recombinant human laminin isoforms (–111, –211, –332, –411, –421, –511, and –521)
Experiment: ELISA: binding of full-length laminin isoforms to absorbed GFs and CXCL chemokines
Details: 50 nM GF coated, 10 nM laminin; signals greater than 0.1 indicate binding; n = 4
Procedure: Ninety-six-well ELISA plates (med-binding, Greiner Bio-One) were coated with 50 nM GFs in 100 µL/well of phosphate-buffered saline (PBS) at 37 °C for more than 2 h. After blocking with 2% BSA solution containing PBS and 0.05% Tween 20 (PBS-T), 10 nM recombinant human laminin isoforms (–111, –211, –332, –411, –421, –511, and –521) (>95% purity tested by SDS-PAGE, BioLamina) in 100 µL/well PBS were added. Bound laminin was detected with 100 µL/well rabbit anti-human LAMC1 polyclonal antibody (Assay Biotech, Catalog No. C13072, 1:1000 dilution in PBS) or rabbit anti-human LAMA3 polyclonal antibody (Assay Biotech, Catalog No. C13066, 1:1000 dilution in PBS). After incubation with biotinylated anti-rabbit antibody for 60 min at room temperature (RT), HRP-conjugated streptavidin (Jackson ImmunoResearch) was added. After 60 min of incubation at RT, 50 μL of TMB substrate (Sigma-Aldrich) was added. The reactions were stopped by adding 25 μL of 2 N H2SO4. Subsequently, the absorbance at 450 nm was measured with a reference of 570 nm.

BMP-2: bone morphogenetic protein, PeproTech
binding to all tested laminin isoforms (ELISA, A450 nm): showed binding
